Laboratory results from patent US6730296B1.

Amino acid sequences for entries named in this document (tags omitted).
UniProt P61073, whole entry: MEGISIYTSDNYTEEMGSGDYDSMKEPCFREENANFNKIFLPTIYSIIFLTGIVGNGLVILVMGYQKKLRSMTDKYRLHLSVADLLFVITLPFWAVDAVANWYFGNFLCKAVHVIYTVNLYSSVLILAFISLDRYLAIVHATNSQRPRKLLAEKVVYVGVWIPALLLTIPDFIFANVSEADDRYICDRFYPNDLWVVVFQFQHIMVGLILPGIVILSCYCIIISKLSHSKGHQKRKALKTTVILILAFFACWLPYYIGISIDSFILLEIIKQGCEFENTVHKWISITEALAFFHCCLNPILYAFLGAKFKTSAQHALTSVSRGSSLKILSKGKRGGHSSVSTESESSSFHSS

Target: fusin/CXCR4 receptor (human) (UniProt P61073)

anti-fusin antibody staining of Jurkat cells after 3-hour incubation at 37 degrees C, Median Channel (Median Channel) | Binder
22 | SDF-1α-Fc chimeric polypeptide encoded by SK2-2 (Fc fusion) KPVSLSYRCPCRFFESHVARANVKHLKILNTPNCALQIVARLKNNNRQVCIDPKLKWIQEYLEKALNKGSGSGSGSGSESKYGPPCPSCPAPEFEGAPSVFLFPPKPKDTLMISRTPEVTCVVVDVSQEDPEVQFNWYVDGVEVHNAKTKPREEQFNSTYRVVSVLTVLHQDWLNGKEYKCKVSNKGLPSSIEKTISKAKGQPREPQVYTLPPSQEEMTKNQVSLTCLVKGFYPSDIAVEWESNGQPENNYKTTPPVLDSDGSFFLYSRLTVDKSRWQEGNVFSCSVMHEALHNHYTQKSLSLSLGK
20 | SDF-1α-Fc chimeric polypeptide encoded by S1-2 and S1-3 (Fc fusion) DGKPVSLSYRCPCRFFESHVARANVKHLKILNTPNCALQIVARLKNNNRQVCIDPKLKWIQEYLEKALNKGSGSGSGSGSESKYGPPCPSCPAPEFEGAPSVFLFPPKPKDTLMISRTPEVTCVVVDVSQEDPEVQFNWYVDGVEVHNAKTKPREEQFNSTYRVVSVLTVLHQDWLNGKEYKCKVSNKGLPSSIEKTISKAKGQPREPQVYTLPPSQEEMTKNQVSLTCLVKGFYPSDIAVEWESNGQPENNYKTTPPVLDSDGSFFLYSRLTVDKSRWQEGNVFSCSVMHEALHNHYTQKSLSLSLGK
